From patent publication US20050054770A1, “Helicomimetics and stabilized lxxll peptidomimetics” (priority 2001, published 2005)

The chains behind the UniProt entries cited, without tags or fusion partners.
UniProt Q92731, whole entry: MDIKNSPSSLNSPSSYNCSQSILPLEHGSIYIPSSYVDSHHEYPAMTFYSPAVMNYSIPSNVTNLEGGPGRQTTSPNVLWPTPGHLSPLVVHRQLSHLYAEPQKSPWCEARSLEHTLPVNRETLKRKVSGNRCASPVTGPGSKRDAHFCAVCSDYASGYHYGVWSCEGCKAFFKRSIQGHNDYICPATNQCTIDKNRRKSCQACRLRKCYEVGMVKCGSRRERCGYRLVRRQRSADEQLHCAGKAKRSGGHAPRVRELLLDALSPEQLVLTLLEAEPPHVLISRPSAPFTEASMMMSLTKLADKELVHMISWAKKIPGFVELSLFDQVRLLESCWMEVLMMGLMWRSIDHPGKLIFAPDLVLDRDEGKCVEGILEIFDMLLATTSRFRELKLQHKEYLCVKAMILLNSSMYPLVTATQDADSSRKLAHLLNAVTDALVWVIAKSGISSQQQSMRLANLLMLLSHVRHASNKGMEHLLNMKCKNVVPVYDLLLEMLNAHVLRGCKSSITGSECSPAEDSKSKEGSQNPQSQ

Target: ER beta (Homo sapiens, UniProt Q92731)
Assay: competition binding assay against a model linear peptide sequence (estrogen receptor-coactivator interaction), ER beta
Details: competition binding assay (Lilly Research Labs); read-out: Ki ER β
Protocol: The synthetic helicormimetic peptides designed as antagonists of the estrogen receptor-coactivator interactions were tested in a competition binding assay (Lilly Research Labs) against a model linear peptide sequence. Activities are reported in the Table below in Ki values, with two of the best analogs labeled as PERM-1 and PERM-2, or Peptidomimetic Estrogen Receptor Modulators.

Ki: 201 µM
SMILES: CC(C)C[C@H](NC(=O)[C@H](CC(C)C)NC(=O)[C@H](CCC(N)=O)NC(=O)[C@H](CCC(=O)O)NC(=O)[C@@H](N)CC(C)C)C(=O)O [AML-I-22, H-Leu-Glu-Gln-Leu-Leu-OH]
